Results taken from ChEMBL document CHEMBL6074669, “Discovery of (2R,4R)-4-((S)-2-Amino-3-methylbutanamido)-2-(4-boronobutyl)pyrrolidine-2-carboxylic Acid (AZD0011), an Actively Transported Prodrug of a Potent Arginase Inhibitor to Treat Cancer” (J Med Chem, 2024).

Columns and labels:
Format in all cases: functional, organism-based
[1] = biological target: T1, Arginase-1 (Mus musculus) (UniProt Q61176); assay: In vivo inhibition of Arg1 in female B6C3F1 mouse xenografted with mouse Ag104Ld cells assessed as fold increase in tumor arginine at 30 mg/kg, po measured after 24 hrs by LC-MS-MS analysis
T1 sequence (whole entry): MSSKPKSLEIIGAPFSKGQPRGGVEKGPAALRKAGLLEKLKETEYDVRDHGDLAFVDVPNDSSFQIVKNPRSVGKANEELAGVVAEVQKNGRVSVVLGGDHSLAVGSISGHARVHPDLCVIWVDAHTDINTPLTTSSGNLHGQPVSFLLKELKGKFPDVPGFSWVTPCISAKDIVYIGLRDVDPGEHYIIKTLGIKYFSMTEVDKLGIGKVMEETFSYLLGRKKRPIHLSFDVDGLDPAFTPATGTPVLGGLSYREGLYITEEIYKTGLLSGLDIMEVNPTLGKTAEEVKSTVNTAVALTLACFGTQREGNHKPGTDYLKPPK

[2] = biological target: T1, Arginase-1 (Mus musculus); assay: In vivo inhibition of Arg1 in female B6C3F1 mouse xenografted with mouse Ag104Ld cells assessed as fold decrease in tumor ornithine at 30 mg/kg, po measured after 24 hrs in presence of anti-PD-L1 by LC-MS-MS analysis
[3] = biological target: T1, Arginase-1 (Mus musculus); assay: In vivo inhibition of Arg1 in female B6C3F1 mouse xenografted with mouse Ag104Ld cells assessed as fold increase in tumor arginine at 30 mg/kg, po measured after 24 hrs in presence of anti-PD-L1 by LC-MS-MS analysis
[4] = biological target: T1, Arginase-1 (Mus musculus); assay: In vivo inhibition of Arg1 in female B6C3F1 mouse xenografted with mouse Ag104Ld cells assessed as fold decrease in tumor ornithine at 30 mg/kg, po measured after 24 hrs by LC-MS-MS analysis

A fold change (FC) [1] of 10, a fold change (FC) [2] of 37 and a fold change (FC) [3] of 9.4 were found for `CC(C)[C@H](N)C(=O)N[C@H]1CN[C@@](CCCCB(O)O)(C(=O)O)C1` in this work. The fold change (FC) [4] was 106.
